Drawing on ChEMBL document CHEMBL1149635, “New chemical tools for investigating human mitotic kinesin Eg5” (Bioorg Med Chem, 2007), this text covers IC50 for one molecule.

The target of the test is T1, Kinesin-like protein KIF11 (Homo sapiens, UniProt P52732).
T1 sequence (P52732 whole entry): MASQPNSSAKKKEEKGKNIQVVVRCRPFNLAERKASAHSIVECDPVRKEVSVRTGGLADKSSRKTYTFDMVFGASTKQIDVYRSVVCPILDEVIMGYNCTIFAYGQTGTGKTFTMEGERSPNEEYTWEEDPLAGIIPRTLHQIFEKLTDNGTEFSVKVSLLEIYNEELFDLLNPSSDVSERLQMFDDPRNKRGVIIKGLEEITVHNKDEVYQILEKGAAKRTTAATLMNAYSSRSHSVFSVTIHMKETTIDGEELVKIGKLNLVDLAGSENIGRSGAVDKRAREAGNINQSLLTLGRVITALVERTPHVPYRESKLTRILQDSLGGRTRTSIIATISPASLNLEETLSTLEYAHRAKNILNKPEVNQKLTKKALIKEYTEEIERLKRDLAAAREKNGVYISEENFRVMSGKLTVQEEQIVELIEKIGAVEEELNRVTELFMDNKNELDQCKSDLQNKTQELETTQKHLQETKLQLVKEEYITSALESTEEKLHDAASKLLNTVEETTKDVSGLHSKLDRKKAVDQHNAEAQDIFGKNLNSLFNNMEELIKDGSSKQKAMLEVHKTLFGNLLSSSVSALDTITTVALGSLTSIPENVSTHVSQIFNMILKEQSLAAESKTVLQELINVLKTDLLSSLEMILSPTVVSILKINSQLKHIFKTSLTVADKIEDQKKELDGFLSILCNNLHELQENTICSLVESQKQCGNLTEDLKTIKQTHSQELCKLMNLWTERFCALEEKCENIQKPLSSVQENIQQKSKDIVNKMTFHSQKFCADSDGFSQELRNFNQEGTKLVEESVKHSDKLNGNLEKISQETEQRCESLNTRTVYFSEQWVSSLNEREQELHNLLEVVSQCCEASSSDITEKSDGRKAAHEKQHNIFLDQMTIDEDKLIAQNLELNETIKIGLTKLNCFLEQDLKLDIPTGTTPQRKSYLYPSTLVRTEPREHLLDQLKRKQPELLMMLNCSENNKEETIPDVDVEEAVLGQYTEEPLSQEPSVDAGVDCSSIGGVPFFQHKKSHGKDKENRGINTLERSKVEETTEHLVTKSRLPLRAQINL
Nature of the test: Inhibition of Eg5 ATPase activity expressed in Escherichia coli after 12 hrs. Type of test: functional. The procedure, abridged:
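Basal (no microtubules) steady-state ATPase of Eg5 2–386 at 1.0 µM, pyruvate kinase/lactate dehydrogenase-coupled assay, room temperature, duplicate, 2.5% DMSO; top concentration 500 µM. Acetylated analogues alternatively preincubated (2 mM) 12 h at 37 °C in DMEM + 10% FBS before basal ATPase measurement.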

What is called IC50 is the midpoint of a concentration-inhibition curve. The low end stands for greater potency, the high end for weaker potency.

The molecule `O=C1CCCC2=C1C(c1cccc(O)c1)NC(=S)N2` (stereo unspecified) yielded an IC50 of 2 µM.
